Results taken from US10023575B2, “Cyclic ether derivatives of pyrazolo[1,5-a]pyrimidine-3-carboxyamide” (Boehringer Ingelheim International GmbH, priority 2015, dated 2018).
pIC50: −log10 of the molar value.

Protein sequences, listed by entry. Tags and fused reporters are not part of them. Lines headed by an entry give the natural chain unless they say otherwise; changes in a name come on top.
UniProt O00408, whole entry, species assumed: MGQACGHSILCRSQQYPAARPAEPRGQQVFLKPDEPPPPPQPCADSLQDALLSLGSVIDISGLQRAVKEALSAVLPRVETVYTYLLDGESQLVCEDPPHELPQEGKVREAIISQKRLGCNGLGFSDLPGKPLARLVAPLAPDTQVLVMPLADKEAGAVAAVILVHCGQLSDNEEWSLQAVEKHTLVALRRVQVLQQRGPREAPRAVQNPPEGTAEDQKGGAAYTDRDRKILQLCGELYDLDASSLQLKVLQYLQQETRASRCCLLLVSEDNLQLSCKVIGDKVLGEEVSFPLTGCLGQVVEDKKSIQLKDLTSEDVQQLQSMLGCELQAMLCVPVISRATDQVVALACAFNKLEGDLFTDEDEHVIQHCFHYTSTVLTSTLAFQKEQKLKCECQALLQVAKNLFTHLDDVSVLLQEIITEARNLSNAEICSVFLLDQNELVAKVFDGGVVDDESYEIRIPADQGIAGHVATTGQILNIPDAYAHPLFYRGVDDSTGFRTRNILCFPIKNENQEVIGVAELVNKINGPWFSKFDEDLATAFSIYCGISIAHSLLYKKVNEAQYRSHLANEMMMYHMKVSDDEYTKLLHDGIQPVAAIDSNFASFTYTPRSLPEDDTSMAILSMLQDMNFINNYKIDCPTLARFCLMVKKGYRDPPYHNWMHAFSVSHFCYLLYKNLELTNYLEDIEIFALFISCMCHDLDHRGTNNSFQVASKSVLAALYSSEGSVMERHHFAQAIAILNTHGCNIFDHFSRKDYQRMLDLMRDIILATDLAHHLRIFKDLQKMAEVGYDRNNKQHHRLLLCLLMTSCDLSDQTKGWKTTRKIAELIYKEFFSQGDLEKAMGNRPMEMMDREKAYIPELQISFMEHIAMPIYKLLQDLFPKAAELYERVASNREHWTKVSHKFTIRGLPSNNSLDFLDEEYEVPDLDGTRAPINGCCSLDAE
UniProt Q9Y233: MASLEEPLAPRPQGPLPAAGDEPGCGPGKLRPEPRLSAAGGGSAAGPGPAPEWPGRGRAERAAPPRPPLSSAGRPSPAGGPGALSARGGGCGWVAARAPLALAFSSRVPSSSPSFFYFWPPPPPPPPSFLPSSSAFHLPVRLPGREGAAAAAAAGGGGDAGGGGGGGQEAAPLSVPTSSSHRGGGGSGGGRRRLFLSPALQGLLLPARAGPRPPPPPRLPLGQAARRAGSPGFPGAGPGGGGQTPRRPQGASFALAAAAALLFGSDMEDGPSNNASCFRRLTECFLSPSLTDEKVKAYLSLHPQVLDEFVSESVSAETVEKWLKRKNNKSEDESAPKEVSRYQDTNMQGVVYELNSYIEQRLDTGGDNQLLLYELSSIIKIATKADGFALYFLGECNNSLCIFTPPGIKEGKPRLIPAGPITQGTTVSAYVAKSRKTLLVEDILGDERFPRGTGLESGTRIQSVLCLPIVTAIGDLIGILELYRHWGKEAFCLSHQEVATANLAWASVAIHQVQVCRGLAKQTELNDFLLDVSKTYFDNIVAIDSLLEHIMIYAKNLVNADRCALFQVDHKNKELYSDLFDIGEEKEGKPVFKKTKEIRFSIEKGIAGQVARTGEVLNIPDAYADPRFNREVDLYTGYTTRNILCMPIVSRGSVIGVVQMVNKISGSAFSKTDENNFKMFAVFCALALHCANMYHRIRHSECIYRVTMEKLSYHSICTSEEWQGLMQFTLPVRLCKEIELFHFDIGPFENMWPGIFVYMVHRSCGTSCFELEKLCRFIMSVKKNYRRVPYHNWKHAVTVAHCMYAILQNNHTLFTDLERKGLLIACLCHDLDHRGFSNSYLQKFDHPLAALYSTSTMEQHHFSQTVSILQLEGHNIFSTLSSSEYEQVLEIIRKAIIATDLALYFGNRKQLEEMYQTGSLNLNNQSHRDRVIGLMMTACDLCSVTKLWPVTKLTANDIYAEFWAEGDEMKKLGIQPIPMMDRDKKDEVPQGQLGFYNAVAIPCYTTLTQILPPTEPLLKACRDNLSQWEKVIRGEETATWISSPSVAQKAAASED

Assays:
PDE 2A = PDE 2A (Homo sapiens (Human), UniProt O00408); assay: Phosphodiesterase (PDE) 2A assay with fluorescent substrate (IMAP, fluorescence polarization); assay type: biochemical; details: labeled cAMP 30 nM, read-out: PDE2 IC50
Source text: (§1) a) Phosphodiesterase (PDE) 2A and 10 Assay with Fluorescent Substrate
(§2) The PDE reaction cleaves cAMP to AMP. The IMAP system (Molecular Device) using fluorescence polarization (FP) as detection principle was used to measure enzyme activity. A fluorescent labeled cAMP was used as substrate for the reaction, generating a labeled AMP. The fluorescent AMP binds specifically to the large M(III)-based nano-particles which reduces the rotational speed of the substrate and thus increases its polarization.
(§3) The inhibition of PDE 2A or 10 enzyme activity was assessed using IMAP-Phosphodiesterase-cAMP fluorescence labeled substrate (Molecular Devices, Order No. R7506), IMAP TR-FRET screening express (Molecular Devices, Order No. R8160, the TR-FRET component will not be used) and PDE 2A or PDE10 protein expressed upon baculovirus infection in SF9 cells. The cells were incubated after infection for ˜3 days and protein production was confirmed by Western Blot. The cells were collected by centrifugation and the pellet frozen in liquid nitrogen before it was resuspended in PBS containing 1% Triton X-100 and protease inhibitors. After 45 min incubation on ice, the cell debris was removed by centrifugation (13.000 rpm, 30 min).
(§4) All reactions were performed in 384 well plates, Perkin Elmer black optiplates and IMAP reaction buffer with 0.1% Tween20 (kit component)
(§5) Compounds were serial diluted in DMSO. With an intermediate dilution step with reaction buffer DMSO concentration was reduced to achieve 1% DMSO in the assay reaction. Setup of the assay started with 10 μl enzyme (˜10 ng/well, depending on prep. batch), 5 μl compound, reaction was started by addition of 5 μl labeled cAMP (30 nM, final concentration), immediately mixed for 15 seconds on a Eppendorf mixmate (2000 rpm) followed by an incubation at room temperature for 90 minutes in the dark. Reaction is stopped by adding of 60 μl binding buffer for FP/cAMP (kit component). After at least 90 min of further incubation (room temperature, dark) the assay was measured at 485 nm excitation/525 nm emission in an Envision multilabel reader (PerkinElmer).
(§6) Each assay plate contained wells with vehicle controls (1% DMSO) for the measurement of non-inhibited reaction (=100% control) and wells without enzyme as 0% controls.
(§7) The analysis of the data was performed by calculation of the percentage of inhibition in the presence of test compound compared to the vehicle control samples (100% control, no inhibition) and a low control (0% control, no enzyme).
(§8) IC50 values are calculated with Assay Explorer or other suited software based on curve fitting of results of at least 8 different compound concentrations. The compound concentrations may vary according to the needed range, but typically cover the range between 10 μM and 0.1 pM.

PDE10 = PDE10 (Homo sapiens (Human), UniProt Q9Y233); assay: Phosphodiesterase (PDE) 10 assay with fluorescent substrate (IMAP, fluorescence polarization); assay type: biochemical; details: labeled cAMP 30 nM
Source text: as §1, §2, §3, §4, §5, §6, §7, §8

Structure (SMILES): O=C(NC1(c2ccc(C(F)(F)F)cc2F)CCCOC1)c1cnn2cc(C3CC3)cnc12 (racemic) [Example 30]
- pIC50 (PDE 2A): 7.92
- pIC50 (PDE10): < 5.00

Structure (SMILES): Cc1cnc2c(C(=O)NC3(c4ccc(C(F)(F)F)cc4)CCOC3)cnn2c1 (racemic) [Example 36]
- pIC50 (PDE 2A): 6.74

Structure (SMILES): Cc1nn2cc(C3CC3)cnc2c1C(=O)NC1(c2ncc(C(F)(F)F)cc2F)CCOC1 (racemic) [Example 40]
- pIC50 (PDE 2A): 7.08

Structure (SMILES): Cc1cnc2c(C(=O)NC3(c4ncc(C(F)(F)F)cc4F)CCOC3)c(C)nn2c1 (racemic) [Example 41]
- pIC50 (PDE10): 5.10

Structure (SMILES): Cc1cnc2c(C(=O)NC3(c4ccc(C(F)(F)F)nc4)CCOC3)c(C)nn2c1 (racemic) [Example 43]
- pIC50 (PDE10): 5.16

Structure (SMILES): Cc1cnc2c(C(=O)NC3(c4ccc(C(F)(F)F)cn4)CCOC3)c(C)nn2c1 (racemic) [Example 44]
- pIC50 (PDE10): 5.01

Structure (SMILES): Cc1nn2cc(C3CC3)cnc2c1C(=O)NC1(c2ccc(C(F)(F)F)cn2)CCOC1 (racemic) [Example 45]
- pIC50 (PDE 2A): 6.62

Structure (SMILES): Cc1cnc2c(C(=O)NC3(c4ccc(C(F)(F)F)cc4F)CCOCC3O)cnn2c1 (racemic) [Example 46]
- pIC50 (PDE 2A): 8.24

Structure (SMILES): Cc1cnc2c(C(=O)NC3(c4ccc(C(F)(F)F)cc4F)CCOCC3O)cnn2c1 (racemic) [Example 47]
- pIC50 (PDE 2A): 6.62

Structure (SMILES): Cc1nn2cc(C3CC3)cnc2c1C(=O)NC1(c2ccc(C(F)(F)F)nc2)CCOCC1O (racemic) [Example 51]
- pIC50 (PDE 2A): 7.23
- pIC50 (PDE10): 5.04

Structure (SMILES): CC1(O)COCCC1(NC(=O)c1cnn2cc(C3CC3)cnc12)c1ccc(C(F)(F)F)cc1F (racemic) [Example 53]
- pIC50 (PDE 2A): 7.00
- pIC50 (PDE10): < 5.00

Structure (SMILES): Cc1nn2cc(C3CC3)cnc2c1C(=O)NC1(c2ncc(C(F)(F)F)cc2F)CCOCC1(C)O (racemic) [Example 62]
- pIC50 (PDE10): 5.15

Structure (SMILES): Cc1cnc2c(C(=O)NC3(c4ccc(C(F)(F)F)cc4F)COCC3O)cnn2c1 (single isomer, unassigned) [Example 72]
- pIC50 (PDE 2A): 6.91

Structure (SMILES): Cc1cnc2c(C(=O)NC3(c4ccc(C(F)(F)F)cc4F)COCC3O)cnn2c1 (single isomer, unassigned) [Example 73]
- pIC50 (PDE 2A): 5.94

Structure (SMILES): Cc1cnc2c(C(=O)NC3(c4ccc(C(F)(F)F)cc4F)COCC3O)cnn2c1 (single isomer, unassigned) [Example 74]
- pIC50 (PDE 2A): 5.60

Structure (SMILES): Cc1cnc2c(C(=O)NC3(c4ccc(C(F)(F)F)cc4F)COCC3O)cnn2c1 (single isomer, unassigned) [Example 75]
- pIC50 (PDE 2A): 7.38

Structure (SMILES): Cc1nn2cc(C3CC3)cnc2c1C(=O)NC1(c2ncc(C(F)(F)F)cc2F)CCOC1 (single isomer, unassigned) [Example 80a]
- pIC50 (PDE 2A): 6.50

Structure (SMILES): Cc1nn2cc(C3CC3)cnc2c1C(=O)NC1(c2ncc(C(F)(F)F)cc2F)CCOC1 (single isomer, unassigned) [Example 80b]
- pIC50 (PDE 2A): 7.12

Structure (SMILES): Cc1cnc2c(C(=O)NC3(c4ccc(C(F)(F)F)cc4F)CCOCC3O)cnn2c1 (single isomer, unassigned) [Example 81a]
- pIC50 (PDE 2A): 8.47

Structure (SMILES): Cc1cnc2c(C(=O)NC3(c4ccc(C(F)(F)F)cc4F)CCOCC3O)cnn2c1 (single isomer, unassigned) [Example 81b]
- pIC50 (PDE 2A): 6.83

Structure (SMILES): Cc1cnc2c(C(=O)NC3(c4ccc(C(F)(F)F)cc4F)CCOCC3(C)O)cnn2c1 (single isomer, unassigned) [Example 83a]
- pIC50 (PDE 2A): 8.23
- pIC50 (PDE10): < 5.00

Structure (SMILES): Cc1cnc2c(C(=O)NC3(c4ccc(C(F)(F)F)cc4F)CCOCC3(C)O)cnn2c1 (single isomer, unassigned) [Example 83b]
- pIC50 (PDE 2A): 5.74
- pIC50 (PDE10): < 5.00

Structure (SMILES): Cc1cnc2c(C(=O)NC3(c4ccc(C(F)(F)F)cc4F)CCOCC3(C)O)cnn2c1 (single isomer, unassigned) [Example 84a]
- pIC50 (PDE 2A): 6.92
- pIC50 (PDE10): < 5.00

Structure (SMILES): Cc1cnc2c(C(=O)NC3(c4ccc(C(F)(F)F)cc4F)CCOCC3(C)O)cnn2c1 (single isomer, unassigned) [Example 84b]
- pIC50 (PDE 2A): 5.55
- pIC50 (PDE10): < 5.00

Structure (SMILES): CC1(O)COCCC1(NC(=O)c1cnn2cc(C3CC3)cnc12)c1ccc(C(F)(F)F)cc1F (single isomer, unassigned) [Example 85a]
- pIC50 (PDE 2A): 6.89
- pIC50 (PDE10): < 5.00

Structure (SMILES): CC1(O)COCCC1(NC(=O)c1cnn2cc(C3CC3)cnc12)c1ccc(C(F)(F)F)cc1F (single isomer, unassigned) [Example 86a]
- pIC50 (PDE 2A): 8.41
- pIC50 (PDE10): < 5.00

Structure (SMILES): CC1(O)COCCC1(NC(=O)c1cnn2cc(C3CC3)cnc12)c1ccc(C(F)(F)F)cc1F (single isomer, unassigned) [Example 86b]
- pIC50 (PDE 2A): 5.59
- pIC50 (PDE10): 5.00

Structure (SMILES): Cc1nn2cc(C3CC3)cnc2c1C(=O)NC1(c2ccc(C(F)(F)F)nc2)CCOCC1O (single isomer, unassigned) [Example 88a]
- pIC50 (PDE 2A): 7.49
- pIC50 (PDE10): 5.12

Structure (SMILES): Cc1nn2cc(C3CC3)cnc2c1C(=O)NC1(c2ccc(C(F)(F)F)nc2)CCOCC1O (single isomer, unassigned) [Example 88b]
- pIC50 (PDE 2A): 5.52
- pIC50 (PDE10): < 5.00

Structure (SMILES): Cc1nn2cc(C3CC3)cnc2c1C(=O)NC1(c2ncc(C(F)(F)F)cc2F)CCOCC1(C)O (single isomer, unassigned) [Example 91a]
- pIC50 (PDE10): 5.11

Structure (SMILES): Cc1nn2cc(C3CC3)cnc2c1C(=O)NC1(c2ncc(C(F)(F)F)cc2F)CCOCC1(C)O (single isomer, unassigned) [Example 91b]
- pIC50 (PDE10): 5.25

Structure (SMILES): Cc1cnc2c(C(=O)NC3(c4ccc(C(F)(F)F)cc4F)COCC3(C)O)cnn2c1 (single isomer, unassigned) [Example 92a]
- pIC50 (PDE 2A): 7.03

Structure (SMILES): Cc1cnc2c(C(=O)NC3(c4ccc(C(F)(F)F)cc4F)COCC3(C)O)cnn2c1 (single isomer, unassigned) [Example 92b]
- pIC50 (PDE 2A): 6.15

Structure (SMILES): Cc1cnc2c(C(=O)NC3(c4ccc(C(F)(F)F)cc4F)COCC3(C)O)cnn2c1 (single isomer, unassigned) [Example 93a]
- pIC50 (PDE 2A): 7.96

Structure (SMILES): Cc1cnc2c(C(=O)NC3(c4ccc(C(F)(F)F)cc4F)COCC3(C)O)cnn2c1 (single isomer, unassigned) [Example 93b]
- pIC50 (PDE 2A): 5.82

Structure (SMILES): CC1(O)COCCC1(NC(=O)c1cnn2cc(C3CC3)cnc12)c1ccc(C(F)(F)F)cc1F (stereo not drawn) [Example 54]
- pIC50 (PDE 2A): 7.92

Structure (SMILES): Cc1cnc2c(C(=O)NC3(c4ccc(C(F)(F)F)cc4F)CCOCC3(C)O)cnn2c1 (stereo not drawn) [Example 55]
- pIC50 (PDE 2A): 7.68
- pIC50 (PDE10): < 5.00

Structure (SMILES): Cc1cnc2c(C(=O)NC3(c4ccc(C(F)(F)F)cc4F)COCC3(C)O)cnn2c1 (stereo not drawn) [Example 58]
- pIC50 (PDE 2A): 7.85
